Measurements published in US20040170711A1, “Medical effect of Jojoba oil in the treatment of anal diseases” (Egyptian Natural Oil, priority 2001, published 2004).

Test system: human body
Test: side effects of Jojoba oil and its preparations
Conditions: in vivo

For Jojoba oil, the side effects was “has not any side-effects”.
